# Molecular target: Insulin receptor (Mus musculus, UniProt P15208)
# By UniProt entry, the sequences of proteins in these tests, tags left out. Residues count along the entry.
# UniProt P15208, 28-748 limits assumed: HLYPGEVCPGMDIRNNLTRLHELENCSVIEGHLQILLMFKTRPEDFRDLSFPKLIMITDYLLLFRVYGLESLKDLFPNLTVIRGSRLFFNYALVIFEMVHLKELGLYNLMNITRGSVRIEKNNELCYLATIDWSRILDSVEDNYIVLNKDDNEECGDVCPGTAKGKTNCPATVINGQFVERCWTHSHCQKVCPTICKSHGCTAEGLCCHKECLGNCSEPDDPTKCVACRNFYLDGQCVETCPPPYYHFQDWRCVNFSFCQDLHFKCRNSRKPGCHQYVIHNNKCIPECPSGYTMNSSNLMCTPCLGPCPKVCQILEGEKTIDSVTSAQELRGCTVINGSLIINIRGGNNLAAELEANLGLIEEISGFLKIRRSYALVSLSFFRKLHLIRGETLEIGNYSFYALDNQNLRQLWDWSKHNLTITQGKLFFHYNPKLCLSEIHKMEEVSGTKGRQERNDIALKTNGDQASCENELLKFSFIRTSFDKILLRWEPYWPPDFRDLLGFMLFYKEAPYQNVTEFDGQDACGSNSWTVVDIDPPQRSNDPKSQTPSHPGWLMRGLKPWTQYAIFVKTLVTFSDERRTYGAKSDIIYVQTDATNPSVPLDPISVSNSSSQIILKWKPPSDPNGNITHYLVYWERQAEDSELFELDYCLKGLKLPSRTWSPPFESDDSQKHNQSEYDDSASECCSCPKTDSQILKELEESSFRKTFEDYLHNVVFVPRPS
# UniProt P15208, 753-1372 limits assumed: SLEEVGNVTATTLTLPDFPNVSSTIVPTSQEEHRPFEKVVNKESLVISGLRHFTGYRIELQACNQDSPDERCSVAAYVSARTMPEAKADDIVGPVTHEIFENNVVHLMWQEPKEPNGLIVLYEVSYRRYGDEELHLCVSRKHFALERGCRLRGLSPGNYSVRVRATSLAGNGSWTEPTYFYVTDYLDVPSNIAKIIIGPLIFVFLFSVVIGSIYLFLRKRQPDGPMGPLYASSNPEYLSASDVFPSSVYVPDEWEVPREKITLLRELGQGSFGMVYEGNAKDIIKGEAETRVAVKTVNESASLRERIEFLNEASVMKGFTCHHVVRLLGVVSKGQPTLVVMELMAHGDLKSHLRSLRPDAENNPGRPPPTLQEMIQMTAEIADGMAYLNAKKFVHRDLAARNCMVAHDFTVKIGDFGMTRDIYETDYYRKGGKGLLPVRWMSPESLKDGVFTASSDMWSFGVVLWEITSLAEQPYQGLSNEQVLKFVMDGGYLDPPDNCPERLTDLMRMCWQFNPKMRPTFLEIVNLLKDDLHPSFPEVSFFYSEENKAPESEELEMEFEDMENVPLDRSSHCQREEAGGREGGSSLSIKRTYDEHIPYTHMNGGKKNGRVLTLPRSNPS
# Assay: Inhibition of Insulin receptor kinase in P19 cells
# Format: cell-based
compound,measurement,value
CN[C@@H]1C[C@H]2O[C@@](C)([C@@H]1OC)n1c3ccccc3c3c4c(c5c6ccccc6n2c5c31)C(=O)NC4 [STAUROSPORINE],IC50,200 nM
